For 44 compounds, activity score (negative = inhibition) results are on record in PubChem BioAssay AID2097 (Broad Institute, 2009).

Sequences of proteins named here, by UniProt entry; tags and fusion partners are left off. A change or cut given only in a name is not applied to a line headed by its entry.
UniProt P49841: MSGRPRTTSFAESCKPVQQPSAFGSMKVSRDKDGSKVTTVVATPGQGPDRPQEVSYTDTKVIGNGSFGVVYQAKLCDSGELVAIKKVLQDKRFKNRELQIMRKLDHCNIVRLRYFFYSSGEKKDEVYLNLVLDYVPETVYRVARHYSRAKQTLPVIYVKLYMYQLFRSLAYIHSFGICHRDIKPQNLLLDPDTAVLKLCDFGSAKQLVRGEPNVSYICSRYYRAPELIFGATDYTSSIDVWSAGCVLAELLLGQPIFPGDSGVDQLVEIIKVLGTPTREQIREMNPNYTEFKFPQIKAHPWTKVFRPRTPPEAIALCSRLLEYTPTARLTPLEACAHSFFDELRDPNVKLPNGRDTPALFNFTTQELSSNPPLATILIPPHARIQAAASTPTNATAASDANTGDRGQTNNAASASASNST

Only a part is listed here, and it is no random draw. Active and inactive are the calls of the source.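 The calls were made as follows: active = more than half of replicate wells score below -50%, meaning over 50% inhibition versus plate controls; inconclusive = some replicates but at most half score below -50%; inactive = no replicate scores below -50%.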

For this assay, the target named is Glycogen synthase kinase-3 beta (Homo sapiens) (UniProt P49841). The assay can be described thus: blockers of GSK3B enzyme activity – biochemical, cell-free homogeneous, HTS, primary screen (AID 2097).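 Also: 0% = median DMSO wells and -100% = median GW8510 positive control wells.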 The following applies: GST-GSK3beta kinase, ADP-Glo luminescence, 60 min; at 10 µM; hits give low values.
`COc1cc(C(=O)NCC2(N3CCOCC3)CCCCC2)cc(Cl)c1OC(C)C`: the activity score (negative = inhibition) was inactive: 3.48%.
To `O=[As](O)(O)c1cccnc1` belongs inactive: 1.06%; to `O=C(OC1CN2CCC1CC2)c1ccc(Cl)cc1` (centres undefined), inactive: 2.11%; to `CN(C(=O)Cc1ccc(Cl)c(Cl)c1)[C@H]1CC[C@@]2(CCCO2)C[C@@H]1N1CCCC1`, inactive: -0.539%.
With `CN(C)C(=O)c1cc([N+](=O)[O-])cc2c1-c1c(cc([N+](=O)[O-])cc1[N+](=O)[O-])C2=O` the figure was inactive: 0.0979%.
With `O=[N+]([O-])c1ccc2c(c1)nnn2O` the figure was inactive: -1.59%; with `CN(C(=O)Cc1ccccc1)[C@@H]1CC[C@]2(CCCO2)C[C@H]1N1CCCC1`, inactive: 5.5%.
On to `CCOP1(=S)c2c(C)nn(CCC#N)c2N=C(c2ccc(F)cc2)N1C` (centres undefined), for which the activity score (negative = inhibition) is inactive: -3.67%.
With `N#CCCN(C(=O)COC(=O)C(O)(c1ccccc1)c1ccccc1)c1ccc(F)cc1` the figure was inactive: -1.3%.
With `NC(=O)Nc1ccc([As](=O)(O)O)cc1` the figure was inactive: -4.26%; with `Nc1ccccc1[As](=O)(O)c1ccccc1`, inactive: -0.183%.
On to `O=C(O)COc1ccc([As](=O)(O)O)cc1[N+](=O)[O-]`, for which the activity score (negative = inhibition) is inactive: 1.41%.
With `CS(=O)(=O)c1cc([N+](=O)[O-])c2no[n+]([O-])c2c1` the figure was inactive: -3.94%.
Take `O=P(Nc1nccs1)(c1ccccc1)c1nc2ccccc2s1` (centres undefined): the activity score (negative = inhibition) was inactive: -0.55%.
With `O=P(Nc1nccs1)(Oc1ccccc1)Oc1ccccc1` the figure was inactive: -0.41%; with `CCOP1(=S)c2c(C)nn(CCC#N)c2N=C(c2ccccc2F)N1C` (centres undefined), inactive: -0.117%; with `O=[N+]([O-])c1cc([N+](=O)[O-])c(-c2ccn[nH]2)s1`, inactive: 0.403%.
Regarding `CCN(CC)C(=S)SC(NC=O)C(Cl)(Cl)Cl` (centres undefined), the activity score (negative = inhibition) is inactive: -1.44%.
In the case of `CC(C)NC(=O)NP(=O)(Oc1ccccc1)Oc1ccccc1`, the activity score (negative = inhibition) is inactive: -0.192%.
To `CC(C)c1ccc(OP(=O)(Nc2ccccn2)Oc2ccccc2F)cc1` (centres undefined) belongs inactive: 1.35%; to `ClCCSc1nnc(-c2cccnc2)o1`, inactive: -0.105%; to `Cc1ccc2nc3c(c(C)c2c1)CC(C(Cl)Cl)S3` (centres undefined), inactive: 1.32%.
`Cc1ccc(OP(=O)(Nc2ccc([N+](=O)[O-])cn2)Oc2ccc(C)cc2)cc1`: the activity score (negative = inhibition) was inactive: 4.91%.
To `C[As](=O)(O)c1cccc(C(=O)O)c1` belongs inactive: 0.686%; to `O=[As](O)(c1ccc(O)cc1)c1ccccc1O`, inactive: -0.00534%.
With `COc1ccc(N/C(=N/P(=O)(N2CCOCC2)N2CCOCC2)N2CCOCC2)cc1` the figure was inactive: 0.012%.
To `COc1cc(I)ccc1[As](=O)(O)O` belongs inactive: -1.61%; to `COc1ccc2nc(NP(=O)(c3ccccc3)c3ccccc3)sc2c1`, inactive: 4.45%; to `Cc1cc(=O)[nH]c(N[N+](=O)[O-])n1`, inactive: -1.15%.
Consider `O=C(OC1CN2CCC1CC2)C12CC3CC(CC(C3)C1)C2` (centres undefined), for which the activity score (negative = inhibition) was inactive: -10.3%.
With `Cc1c2c(nc3ccccc13)SC(C(Cl)Cl)C2` (centres undefined) the figure was inactive: 0.244%; with `CCC(C)N(CC(C)C)C(=S)SC(NC(C)=O)C(Cl)(Cl)Cl` (centres undefined), inactive: -0.429%; with `CCOC(=O)c1ccc(NC(=O)C(C)(CCl)SC)cc1` (centres undefined), inactive: 0.597%.
To `O=C(OC1CN2CCC1CC2)c1cccc([N+](=O)[O-])c1` (centres undefined) belongs inactive: 0.525%; to `O=C(Nc1ccncc1[N+](=O)[O-])c1ccc([N+](=O)[O-])cc1[N+](=O)[O-]`, inactive: -7.74%; to `O=C(COc1ccccc1)OC1CN2CCC1CC2` (centres undefined), inactive: 4.4%.
To `COP1(=S)c2c(C)nn(CCC#N)c2N=C(c2ccc(F)cc2)N1C` (centres undefined) belongs inactive: -0.537%; to `O=[N+]([O-])c1ccc(Nc2ccc(Oc3ccc([N+](=O)[O-])cc3[N+](=O)[O-])cc2)c([N+](=O)[O-])c1`, inactive: -1.61%.
Take `O=P(Nc1ccccn1)(c1cccc2ccccc12)c1cccc2ccccc12`: the activity score (negative = inhibition) is inactive: -4.86%.
As for `Cc1cc(SC(NC=O)C(Cl)(Cl)Cl)ncn1` (centres undefined), the activity score (negative = inhibition) was inactive: -1.43%.
With `CCOC(=O)Nc1cccc([As](=O)(O)O)c1` the figure was inactive: 0.674%; with `Cc1cc(SC(NC(=O)c2ccccc2)C(Cl)(Cl)Cl)nc(C(C)C)n1` (centres undefined), inactive: -0.859%; with `CCCCOc1ccc(C(=O)NCC2(N3CCCCC3)CCCCC2)cc1OC`, inactive: -0.124%.
With `CCOC(=O)Nc1ccc([As](=O)(O)O)c(O)c1` the figure was inactive: -20.2%.
